Reference: ChEMBL document CHEMBL1944590, “Synthesis of 3-phenylsulfonylmethyl cyclohexylaminobenzamide-derived antagonists of CC chemokine receptor 2 (CCR2)” (Bioorg Med Chem Lett, 2012)

Protein sequences, listed by entry. Tags and fused reporters are not part of them. Lines headed by an entry give the natural chain unless they say otherwise; changes in a name come on top.
UniProt P41597: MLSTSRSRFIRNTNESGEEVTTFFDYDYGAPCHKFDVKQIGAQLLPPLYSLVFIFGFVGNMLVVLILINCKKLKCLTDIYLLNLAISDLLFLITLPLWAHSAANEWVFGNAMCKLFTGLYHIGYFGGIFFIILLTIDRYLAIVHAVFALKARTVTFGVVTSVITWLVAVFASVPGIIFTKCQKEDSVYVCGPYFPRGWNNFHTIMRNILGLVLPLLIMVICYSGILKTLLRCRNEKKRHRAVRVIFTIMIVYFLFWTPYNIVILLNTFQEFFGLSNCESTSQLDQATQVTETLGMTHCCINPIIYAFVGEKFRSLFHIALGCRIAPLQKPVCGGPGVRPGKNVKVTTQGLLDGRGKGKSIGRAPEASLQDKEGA

How the values were obtained:
[1] = target: T1, C-C chemokine receptor type 2 (Homo sapiens, UniProt P41597); test: Displacement of [125I]MCP-1 from CCR2 in human THP1 cells; assay type: cell-based, THP-1
In short: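 Competition binding against [¹²⁵I]MCP-1 using THP-1 cells in place of peripheral blood mononuclear cells. IC50 typically given as the mean of two determinations.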

[2] = target: T1, C-C chemokine receptor type 2; test: Displacement of [125I]MCP-1 from CCR2 in human PMBC

- IC50 [1]: 6.6 nM
- IC50 [2]: 1.4 nM
Compound: N[C@@H]1CC[C@H](NC(=O)CNC(=O)c2cc(C(F)(F)F)ccc2NC(=O)N2CCC2)C[C@@H]1CS(=O)(=O)c1ccccc1 (racemic)
